{
  "sequences": {"note": "The chains behind the UniProt entries cited, without tags or fusion partners.", "UniProt P19174, whole entry": "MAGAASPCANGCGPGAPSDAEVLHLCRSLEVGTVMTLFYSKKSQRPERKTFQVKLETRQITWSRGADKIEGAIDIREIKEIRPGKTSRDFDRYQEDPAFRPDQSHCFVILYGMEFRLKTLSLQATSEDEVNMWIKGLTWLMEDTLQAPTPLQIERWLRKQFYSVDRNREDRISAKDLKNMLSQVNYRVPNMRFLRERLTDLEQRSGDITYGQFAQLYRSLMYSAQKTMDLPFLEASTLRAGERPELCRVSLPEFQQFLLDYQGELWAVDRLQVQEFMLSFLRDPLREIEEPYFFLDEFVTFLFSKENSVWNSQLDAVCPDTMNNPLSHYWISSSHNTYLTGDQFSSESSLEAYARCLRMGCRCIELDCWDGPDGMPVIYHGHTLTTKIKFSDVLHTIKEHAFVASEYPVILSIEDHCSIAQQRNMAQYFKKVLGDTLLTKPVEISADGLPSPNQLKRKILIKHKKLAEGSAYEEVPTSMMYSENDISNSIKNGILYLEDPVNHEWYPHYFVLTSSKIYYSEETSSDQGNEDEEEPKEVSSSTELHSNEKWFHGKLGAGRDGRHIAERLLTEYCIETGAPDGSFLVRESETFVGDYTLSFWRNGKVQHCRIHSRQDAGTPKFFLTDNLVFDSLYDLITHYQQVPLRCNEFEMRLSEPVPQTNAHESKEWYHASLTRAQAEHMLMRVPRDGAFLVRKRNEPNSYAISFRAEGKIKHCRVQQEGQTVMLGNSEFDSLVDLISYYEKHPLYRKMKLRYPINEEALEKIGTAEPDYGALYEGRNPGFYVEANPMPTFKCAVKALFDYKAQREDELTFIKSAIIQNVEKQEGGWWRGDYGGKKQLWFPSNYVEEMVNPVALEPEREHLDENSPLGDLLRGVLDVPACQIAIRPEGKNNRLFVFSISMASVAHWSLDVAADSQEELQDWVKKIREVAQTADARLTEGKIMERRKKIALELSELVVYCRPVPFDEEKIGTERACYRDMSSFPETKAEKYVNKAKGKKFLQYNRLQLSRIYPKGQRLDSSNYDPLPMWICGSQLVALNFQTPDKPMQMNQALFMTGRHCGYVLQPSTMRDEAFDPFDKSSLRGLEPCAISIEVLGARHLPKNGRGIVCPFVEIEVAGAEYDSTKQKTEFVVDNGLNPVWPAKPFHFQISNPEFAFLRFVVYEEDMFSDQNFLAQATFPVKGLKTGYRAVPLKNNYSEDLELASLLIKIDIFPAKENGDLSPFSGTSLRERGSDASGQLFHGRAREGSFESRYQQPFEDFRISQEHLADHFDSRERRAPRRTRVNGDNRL"},
  "source": "PubChem BioAssay AID743258",
  "about": "(The Scripps Research Institute Molecular Screening Center, 2014)",
  "note": "The entries are a selection whose mix differs from that of the whole data set. Activity calls are given as the source filed them. No stated cut-off is given here; in the data, active means inhibition above about 9.5%; inactive means the rest.",
  "data": [
    {"biological_target": "1-phosphatidylinositol 4,5-bisphosphate phosphodiesterase gamma-1 (Homo sapiens) (UniProt P19174)", "experiment": "human PLCG1 activity blockade – biochemical, fluorescence, counter-screen for PLC-beta3 inhibitor project (AID 743258)", "conditions": "purified PLC-gamma1, fluorogenic substrate, at 12.3 µM, active compounds read high", "values": [
      {"smiles": "O=[N+]([O-])c1cc([N+](=O)[O-])c(C(F)(F)F)c([N+](=O)[O-])c1O", "inhibition": "inactive: -2.39%"}
    ]}
  ]
}
